Tests used:
[1] = target: T1, Indoleamine 2,3-dioxygenase 1 (Homo sapiens, UniProt P14902); experiment: Inhibition of human IDO1 transfected in mouse P815B clone-6 cells by HPLC analysis; format: cell-based
[2] = target: T1, Indoleamine 2,3-dioxygenase 1; experiment: Inhibition of human recombinant N-terminal His-tagged IDO1 (Ala2 to Gly403) overexpressed in Escherichia coli BL21 at pH 7.4 after 60 mins by HPLC analysis
[3] = target: T1, Indoleamine 2,3-dioxygenase 1; experiment: Inhibition of human recombinant N-terminal His-tagged IDO1 (Ala2 to Gly403) overexpressed in Escherichia coli BL21 at pH 6.5 after 60 mins by HPLC analysis
[4] = physchem; settings: pH 2
[5] = Dissociation constant, pKa of the compound at pH 11 to 12 by spectrophotometric analysis; format: physicochemical

Amino acid sequences for entries named in this document (tags omitted).
UniProt P14902, whole entry: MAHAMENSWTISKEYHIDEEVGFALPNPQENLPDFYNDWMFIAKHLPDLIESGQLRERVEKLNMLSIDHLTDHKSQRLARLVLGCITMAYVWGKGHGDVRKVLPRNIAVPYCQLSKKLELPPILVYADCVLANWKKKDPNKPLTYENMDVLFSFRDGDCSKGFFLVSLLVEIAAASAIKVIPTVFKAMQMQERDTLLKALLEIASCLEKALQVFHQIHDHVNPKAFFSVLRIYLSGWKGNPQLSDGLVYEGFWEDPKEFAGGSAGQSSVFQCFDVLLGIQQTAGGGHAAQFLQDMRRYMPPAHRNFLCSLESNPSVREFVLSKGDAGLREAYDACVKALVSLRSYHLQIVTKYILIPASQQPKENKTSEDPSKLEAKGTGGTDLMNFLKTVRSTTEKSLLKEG

Row | SMILES | IC50 [1] | IC50 [2] | IC50 [3] | pKa [4] | pKa [5]
1 | Oc1ccc(Cl)cc1-c1c[nH]nn1 | 80 nM | 71 nM | 330 nM |  | 
2 | c1ccc2[nH]nnc2c1 [BENZOTRIAZOLE] |  |  |  | 8.6 | 1.6
